Key:
Format in all cases: cell-based
[1] = target: Glutamate NMDA receptor; Grin1/Grin2a (Rattus norvegicus) (UniProt P35439+Q00959); experiment: Agonist activity at rat GluN1/GluN2A NMDA receptor expressed in Xenopus oocytes assessed as maximal relative efficacy measured after 4 days in presence of L-glutamte by two-electrode voltage-clamp recording assay relative to glycine; conditions: Oocyte, filed as agonist, time 4.0 day
Summary of the method: (§1)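 Rat GluN1 plus GluN2A or GluN2B cRNA (1:2) in Xenopus oocytes. TEVC at −40 mV, room temperature, 2–4 days post-injection. Bath: 90 mM NaCl, 1 mM KCl, 10 mM HEPES, 0.5 mM BaCl2, 0.01 mM EDTA, pH 7.4. Oocytes were BAPTA-injected before recording. Agonist applied with 300 μM L-Glu throughout. […] NR means <5% response at the stated concentration. 3–14 oocytes.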

The chains behind the UniProt entries cited, without tags or fusion partners. Where a name states a change or a piece, a line headed by the entry shows the natural chain unless it says otherwise.
UniProt Q00959, whole entry, looked up: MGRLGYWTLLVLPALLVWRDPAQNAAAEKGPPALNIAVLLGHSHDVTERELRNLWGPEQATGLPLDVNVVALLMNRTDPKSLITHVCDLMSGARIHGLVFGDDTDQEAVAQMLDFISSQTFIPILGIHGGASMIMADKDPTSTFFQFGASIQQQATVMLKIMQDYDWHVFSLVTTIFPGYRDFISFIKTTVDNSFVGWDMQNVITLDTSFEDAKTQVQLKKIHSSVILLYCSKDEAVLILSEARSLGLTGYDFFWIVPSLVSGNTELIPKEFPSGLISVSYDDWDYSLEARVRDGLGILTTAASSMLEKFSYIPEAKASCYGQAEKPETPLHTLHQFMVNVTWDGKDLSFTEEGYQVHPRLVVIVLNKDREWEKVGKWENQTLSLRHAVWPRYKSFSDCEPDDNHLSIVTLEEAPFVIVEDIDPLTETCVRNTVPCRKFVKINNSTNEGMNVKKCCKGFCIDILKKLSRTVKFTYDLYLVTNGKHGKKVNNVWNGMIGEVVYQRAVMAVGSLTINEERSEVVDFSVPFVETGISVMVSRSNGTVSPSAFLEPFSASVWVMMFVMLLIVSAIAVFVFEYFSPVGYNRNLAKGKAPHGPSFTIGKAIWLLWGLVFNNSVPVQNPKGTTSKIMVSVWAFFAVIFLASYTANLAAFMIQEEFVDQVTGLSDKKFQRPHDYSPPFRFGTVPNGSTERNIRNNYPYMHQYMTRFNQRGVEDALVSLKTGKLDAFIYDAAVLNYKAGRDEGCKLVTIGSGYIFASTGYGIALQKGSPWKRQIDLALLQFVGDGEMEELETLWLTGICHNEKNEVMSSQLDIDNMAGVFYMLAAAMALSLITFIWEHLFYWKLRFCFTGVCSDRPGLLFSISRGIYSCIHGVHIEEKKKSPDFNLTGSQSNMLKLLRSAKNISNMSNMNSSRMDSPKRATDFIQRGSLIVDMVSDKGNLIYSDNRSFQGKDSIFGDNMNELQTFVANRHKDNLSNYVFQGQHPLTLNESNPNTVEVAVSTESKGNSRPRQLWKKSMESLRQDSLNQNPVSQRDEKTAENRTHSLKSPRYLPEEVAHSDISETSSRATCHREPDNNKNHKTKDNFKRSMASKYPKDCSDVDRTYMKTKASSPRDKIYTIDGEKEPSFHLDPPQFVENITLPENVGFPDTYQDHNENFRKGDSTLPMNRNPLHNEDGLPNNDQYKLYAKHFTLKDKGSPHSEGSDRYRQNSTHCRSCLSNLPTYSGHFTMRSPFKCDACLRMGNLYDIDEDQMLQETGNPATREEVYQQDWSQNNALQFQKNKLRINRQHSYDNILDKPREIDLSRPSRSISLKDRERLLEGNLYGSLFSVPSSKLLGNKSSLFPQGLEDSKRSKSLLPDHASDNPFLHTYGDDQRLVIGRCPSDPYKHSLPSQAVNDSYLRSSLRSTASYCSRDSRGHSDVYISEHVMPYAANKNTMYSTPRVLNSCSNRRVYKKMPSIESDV
UniProt Q00960, whole entry, looked up: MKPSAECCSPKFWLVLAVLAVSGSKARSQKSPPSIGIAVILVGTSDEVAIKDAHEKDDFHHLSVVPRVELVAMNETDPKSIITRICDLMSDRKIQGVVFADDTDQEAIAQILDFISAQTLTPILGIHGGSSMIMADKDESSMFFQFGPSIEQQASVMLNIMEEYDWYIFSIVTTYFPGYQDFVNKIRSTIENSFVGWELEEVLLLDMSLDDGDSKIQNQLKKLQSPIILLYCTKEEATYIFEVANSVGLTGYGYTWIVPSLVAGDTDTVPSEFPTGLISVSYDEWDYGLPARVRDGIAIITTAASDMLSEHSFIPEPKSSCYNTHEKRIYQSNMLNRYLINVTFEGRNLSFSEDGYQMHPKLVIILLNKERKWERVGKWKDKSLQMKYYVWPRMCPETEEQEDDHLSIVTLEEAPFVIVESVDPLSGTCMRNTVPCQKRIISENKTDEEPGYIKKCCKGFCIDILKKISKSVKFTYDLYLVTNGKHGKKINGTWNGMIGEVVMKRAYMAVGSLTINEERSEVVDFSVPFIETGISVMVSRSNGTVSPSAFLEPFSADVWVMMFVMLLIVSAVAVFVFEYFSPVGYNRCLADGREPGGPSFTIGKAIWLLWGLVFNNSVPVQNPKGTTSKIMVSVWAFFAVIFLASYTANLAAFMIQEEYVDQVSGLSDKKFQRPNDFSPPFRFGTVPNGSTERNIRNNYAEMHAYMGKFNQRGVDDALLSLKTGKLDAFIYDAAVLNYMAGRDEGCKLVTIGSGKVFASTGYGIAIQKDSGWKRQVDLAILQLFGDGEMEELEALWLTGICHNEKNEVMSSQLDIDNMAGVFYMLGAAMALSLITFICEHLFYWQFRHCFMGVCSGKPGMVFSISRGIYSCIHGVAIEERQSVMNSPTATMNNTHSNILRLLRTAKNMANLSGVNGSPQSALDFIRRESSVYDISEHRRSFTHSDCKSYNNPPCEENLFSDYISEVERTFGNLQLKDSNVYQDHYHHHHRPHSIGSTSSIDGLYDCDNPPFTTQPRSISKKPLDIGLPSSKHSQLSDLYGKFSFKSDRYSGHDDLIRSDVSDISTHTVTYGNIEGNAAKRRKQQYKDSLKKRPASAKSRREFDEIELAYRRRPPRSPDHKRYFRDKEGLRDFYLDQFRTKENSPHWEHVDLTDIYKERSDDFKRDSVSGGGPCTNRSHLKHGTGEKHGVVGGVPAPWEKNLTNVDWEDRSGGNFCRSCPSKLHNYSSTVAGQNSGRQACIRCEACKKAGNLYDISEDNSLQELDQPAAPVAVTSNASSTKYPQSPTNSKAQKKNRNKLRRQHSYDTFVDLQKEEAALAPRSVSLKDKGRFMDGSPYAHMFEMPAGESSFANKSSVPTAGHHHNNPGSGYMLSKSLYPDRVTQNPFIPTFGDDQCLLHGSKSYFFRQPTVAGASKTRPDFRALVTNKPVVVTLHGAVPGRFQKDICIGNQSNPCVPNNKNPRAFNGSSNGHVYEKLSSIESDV
UniProt Q00961: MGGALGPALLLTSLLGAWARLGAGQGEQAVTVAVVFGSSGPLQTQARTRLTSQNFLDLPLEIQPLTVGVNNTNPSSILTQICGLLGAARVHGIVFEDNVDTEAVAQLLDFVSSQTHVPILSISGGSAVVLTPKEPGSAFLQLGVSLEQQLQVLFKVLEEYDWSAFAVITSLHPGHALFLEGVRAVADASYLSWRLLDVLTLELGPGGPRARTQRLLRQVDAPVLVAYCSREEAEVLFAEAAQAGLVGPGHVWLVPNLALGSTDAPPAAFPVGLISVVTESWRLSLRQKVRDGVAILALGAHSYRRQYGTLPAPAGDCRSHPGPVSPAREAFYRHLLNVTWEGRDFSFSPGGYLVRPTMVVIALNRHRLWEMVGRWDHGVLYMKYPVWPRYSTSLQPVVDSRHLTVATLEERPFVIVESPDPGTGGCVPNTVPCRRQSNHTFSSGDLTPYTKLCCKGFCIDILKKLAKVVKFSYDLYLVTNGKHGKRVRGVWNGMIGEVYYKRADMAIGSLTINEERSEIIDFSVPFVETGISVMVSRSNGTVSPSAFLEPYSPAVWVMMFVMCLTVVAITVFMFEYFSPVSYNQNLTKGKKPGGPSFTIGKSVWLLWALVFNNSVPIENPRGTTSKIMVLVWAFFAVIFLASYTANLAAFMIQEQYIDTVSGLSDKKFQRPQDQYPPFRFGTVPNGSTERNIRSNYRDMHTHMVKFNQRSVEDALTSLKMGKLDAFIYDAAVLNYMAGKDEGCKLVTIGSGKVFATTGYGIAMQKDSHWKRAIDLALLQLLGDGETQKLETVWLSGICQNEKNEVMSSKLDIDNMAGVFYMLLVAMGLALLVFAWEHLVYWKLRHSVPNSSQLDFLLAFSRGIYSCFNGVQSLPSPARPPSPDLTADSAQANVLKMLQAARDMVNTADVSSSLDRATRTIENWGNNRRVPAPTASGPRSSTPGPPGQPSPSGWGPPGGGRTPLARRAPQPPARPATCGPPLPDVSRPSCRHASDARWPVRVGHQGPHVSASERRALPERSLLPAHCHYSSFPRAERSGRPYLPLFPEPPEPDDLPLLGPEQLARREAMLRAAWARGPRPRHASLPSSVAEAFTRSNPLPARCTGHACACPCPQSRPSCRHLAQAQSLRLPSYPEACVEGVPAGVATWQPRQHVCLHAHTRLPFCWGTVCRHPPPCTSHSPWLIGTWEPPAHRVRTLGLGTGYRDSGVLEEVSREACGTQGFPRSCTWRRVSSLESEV
UniProt Q62645, whole entry, looked up: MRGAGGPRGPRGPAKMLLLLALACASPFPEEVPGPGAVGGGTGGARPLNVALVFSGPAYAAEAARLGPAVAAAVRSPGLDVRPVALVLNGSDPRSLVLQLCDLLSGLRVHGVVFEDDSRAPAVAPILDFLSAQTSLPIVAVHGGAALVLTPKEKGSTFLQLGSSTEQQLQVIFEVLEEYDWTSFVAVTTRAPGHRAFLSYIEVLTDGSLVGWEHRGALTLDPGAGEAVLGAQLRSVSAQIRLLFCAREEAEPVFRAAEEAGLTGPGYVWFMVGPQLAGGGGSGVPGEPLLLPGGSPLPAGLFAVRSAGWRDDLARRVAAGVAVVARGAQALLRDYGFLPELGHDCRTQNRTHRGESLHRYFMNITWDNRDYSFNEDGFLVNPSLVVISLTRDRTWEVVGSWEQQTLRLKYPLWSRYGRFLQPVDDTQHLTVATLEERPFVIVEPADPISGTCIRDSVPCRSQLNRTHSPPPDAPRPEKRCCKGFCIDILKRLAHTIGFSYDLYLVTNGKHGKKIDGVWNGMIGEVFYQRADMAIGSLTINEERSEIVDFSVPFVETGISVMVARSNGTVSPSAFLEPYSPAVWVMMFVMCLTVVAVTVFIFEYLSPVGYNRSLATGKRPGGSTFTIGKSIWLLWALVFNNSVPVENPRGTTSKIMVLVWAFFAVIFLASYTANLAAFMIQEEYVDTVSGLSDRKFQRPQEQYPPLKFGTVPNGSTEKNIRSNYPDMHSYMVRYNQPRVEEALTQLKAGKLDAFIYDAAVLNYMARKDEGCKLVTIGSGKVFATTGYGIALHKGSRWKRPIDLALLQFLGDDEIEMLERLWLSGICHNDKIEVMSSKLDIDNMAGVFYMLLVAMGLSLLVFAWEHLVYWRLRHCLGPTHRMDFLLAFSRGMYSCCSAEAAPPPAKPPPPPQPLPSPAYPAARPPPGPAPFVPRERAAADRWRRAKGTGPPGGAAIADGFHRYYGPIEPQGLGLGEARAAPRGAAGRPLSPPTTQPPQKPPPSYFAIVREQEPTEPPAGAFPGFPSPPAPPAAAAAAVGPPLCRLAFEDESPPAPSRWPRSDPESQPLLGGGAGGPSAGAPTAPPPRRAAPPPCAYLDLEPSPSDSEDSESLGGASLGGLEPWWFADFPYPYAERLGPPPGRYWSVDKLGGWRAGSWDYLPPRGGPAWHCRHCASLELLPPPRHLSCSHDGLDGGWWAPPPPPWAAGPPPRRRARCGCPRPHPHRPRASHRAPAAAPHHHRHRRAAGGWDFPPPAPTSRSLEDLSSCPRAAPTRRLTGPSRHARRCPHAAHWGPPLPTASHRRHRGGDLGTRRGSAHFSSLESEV

[2] = target: Glutamate NMDA receptor; Grin1/Grin2b (Rattus norvegicus) (UniProt P35439+Q00960); experiment: Agonist activity at rat GluN1/GluN2B NMDA receptor expressed in Xenopus oocytes assessed as maximal relative efficacy measured at 300 uM after 4 days in presence of L-glutamte by two-electrode voltage-clamp recording assay relative to glycine; conditions: Oocyte, time 4.0 day; summary of the method: as §1
[3] = target: Glutamate NMDA receptor; Grin1/Grin2c (Rattus norvegicus) (UniProt P35439+Q00961); experiment: Agonist activity at rat GluN1/GluN2C NMDA receptor expressed in Xenopus oocytes assessed as maximal relative efficacy measured after 4 days in presence of L-glutamte by two-electrode voltage-clamp recording assay relative to glycine; conditions: Oocyte, filed as agonist, time 4.0 day
Summary of the method: (§2)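 Xenopus oocytes were injected with rat GluN1 and GluN2C or GluN2D cRNA (1:2) and recorded by TEVC 2–4 days later at −40 mV, room temperature, pH 7.4 HEPES/NaCl/BaCl2 saline. Concentration-response with 300 μM L-Glu present. […] NR means <5% response at the concentration given. DMSO ≤0.5%. 3–14 oocytes.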

[4] = target: Ionotropic glutamate receptor NMDA 1/2D (Rattus norvegicus) (UniProt P35439+Q62645); experiment: Agonist activity at rat GluN1/GluN2D NMDA receptor expressed in Xenopus oocytes assessed as maximal relative efficacy measured after 4 days in presence of L-glutamte by two-electrode voltage-clamp recording assay relative to glycine; conditions: Oocyte, time 4.0 day; summary of the method: as §2

## CCc1ccccc1-c1ccc(C(=O)NC[C@@H](N)C(=O)O)o1
[1]
  Rmax: 40%
[2]
  Rmax: < 5%
[3]
  Rmax: 52%
[4]
  Rmax: 11%
